Laboratory results published in PubChem BioAssay AID624 (Vanderbilt High Throughput Screening Facility, 2007).
The entries are a selection whose mix differs from that of the whole data set. Calls of active or inactive are those of the source.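 How the source made its calls: active means fluorescence slope after compound addition differing from the mean of all screened samples at 99.7% confidence, in either direction; inactive means the rest.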

Chains of the proteins cited; added tags and fusions are not shown.
UniProt P18825, whole entry: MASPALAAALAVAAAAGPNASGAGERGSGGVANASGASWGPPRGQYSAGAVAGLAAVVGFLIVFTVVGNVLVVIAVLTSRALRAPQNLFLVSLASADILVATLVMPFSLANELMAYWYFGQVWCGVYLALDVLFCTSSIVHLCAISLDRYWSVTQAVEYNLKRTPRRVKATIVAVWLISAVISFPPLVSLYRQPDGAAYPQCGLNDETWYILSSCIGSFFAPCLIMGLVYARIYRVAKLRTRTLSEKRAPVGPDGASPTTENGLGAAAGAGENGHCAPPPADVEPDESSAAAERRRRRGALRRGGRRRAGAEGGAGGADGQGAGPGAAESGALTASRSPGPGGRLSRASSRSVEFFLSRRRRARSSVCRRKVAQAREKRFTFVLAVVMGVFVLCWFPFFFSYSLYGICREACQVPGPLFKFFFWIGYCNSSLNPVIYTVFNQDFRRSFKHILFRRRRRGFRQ

These compounds were tested against Alpha-2C adrenergic receptor (Homo sapiens) (UniProt P18825) (assay: compounds altering alpha2C-coupled GIRK flux – cell-based, HEK293 alpha2C/GIRK1/2, thallium flux, primary screen (AID 624;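 further: slope of fluorescence ratio to pre-addition baseline per second over 15 to 24 s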)). Conditions: thallium flux BTC fluorescence, at 10 µM, actives lie on both sides.
In the case of `Fc1ccccc1NC1CCN(Cc2ccccc2)CC1`, the slope is reported as inactive: 0.0055.
